Our source for the GFP response vs DMSO values is PubChem BioAssay AID2029 (NMMLSC, 2009).

Molecules are shown by their SMILES. The list shows a part of the results, in another mix than the full data. Some tests of the compounds listed are not included; inactive here does not mean inactive elsewhere. Active and inactive are the calls of the source.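 The calls were made as follows: active = GFP response relative to DMSO above a set limit, near the screen mean plus 3 SD (cut at about 150% in these data); inconclusive = Fewer than 70 cells measured for a yeast strain; inactive = the rest.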

The test can be described thus: TOR pathway RTG branch CIT2 reporter changes – S. cerevisiae, GFP fusion, multiplex flow cytometry, MLPCN library, primary screen (AID 2029).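 Also: ratio of well median GFP fluorescence to mean of DMSO wells on the plate.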 The settings on record: S. cerevisiae CIT2-GFP strain, 3 h, at 10 µM, active compounds read high, 100 means same as DMSO wells. On the technique in general: In flow cytometry, cells or beads pass a laser one at a time.
Regarding `Cc1ccccc1C(=O)NCC1(N2CCCCC2)CCCCC1`, the GFP response vs DMSO was inactive: 95.6%.

As to `CN(C)C1CCCC1OC(=O)C(O)(c1ccccc1)c1ccccc1` (stereo not drawn), the GFP response vs DMSO is inactive: 114%.

Take `CN(C)c1ccc(C(=O)NCC2(N(C)C)CCCCC2)cc1`: the GFP response vs DMSO is inactive: 108%.

Consider `C=CCN1CCN(CCOC(=O)C(O)(c2ccccc2)c2ccccc2)CC1`, for which the GFP response vs DMSO was inactive: 95.1%.

As to `O=C(NCC1(N2CCCCC2)CCCCC1)c1cc(F)c(F)cc1Cl`, the GFP response vs DMSO is inactive: 90.8%.

For `COc1ccc(C(=O)NCC2(N(C)C)CCCCC2)cc1`, the GFP response vs DMSO was inactive: 102%.

In the case of `CCN1CCCC(OC(=O)C2(O)c3ccccc3C=Cc3ccccc32)C1` (stereo not drawn), the GFP response vs DMSO was inactive: 97%.

`O=C(NCC1(N2CCCCC2)CCCCC1)c1cccc(Br)c1`: the GFP response vs DMSO was inactive: 109%.

Regarding `O=C(NCC1(N2CCCCC2)CCCCC1)c1cc([N+](=O)[O-])ccc1Cl`, the GFP response vs DMSO is inactive: 106%.

With `CN1[C@@H]2CC[C@H]1CC(OC(=O)C(O)(c1ccccc1)c1ccccc1)C2` (stereo partly drawn), the GFP response vs DMSO is inactive: 96.2%.

For the compound `CCN(CC)CC(C)C(C)OC(=O)C(O)(c1ccccc1)c1ccccc1` (stereo not drawn), the GFP response vs DMSO is inactive: 92.8%.

Regarding `COc1cc(SC)ccc1C(=O)NCC1(N(C)C)CCCCC1`, the GFP response vs DMSO is inactive: 110%.

Turning to `CC(C)N1C(=O)CC2(CCN(CCOC(=O)C(O)(c3ccccc3)c3ccccc3)CC2)C1=O`, the GFP response vs DMSO is inactive: 99.3%.

Regarding `Cc1ccc(C(=O)NCC2(N3CCCCC3)CCCCC2)cc1`, the GFP response vs DMSO is inactive: 97.3%.

With `O=C(OC1CN2CCC1CC2)C(CO)(c1ccccc1)c1ccccc1` (stereo not drawn), the GFP response vs DMSO was inactive: 104%.

In the case of `COc1ccc(Br)c(C(=O)NCC2(N3CCCCC3)CCCCC2)c1`, the GFP response vs DMSO was inactive: 102%.

Turning to `CC(C)Oc1ccc(C(=O)NCC2(N(C)C)CCCCC2)cc1`, the GFP response vs DMSO is inactive: 103%.

In the case of `CN(C)c1cccc(C(=O)NCC2(N(C)C)CCCCC2)c1`, the GFP response vs DMSO is inactive: 116%.

Consider `CN(C)C1(CNC(=O)c2ccc(Br)cc2)CCCCC1`, for which the GFP response vs DMSO is inactive: 100%.

Consider `COc1cc(C(=O)NCC2(N(C)C)CCCCC2)c([N+](=O)[O-])cc1OC`, for which the GFP response vs DMSO is inactive: 92.7%.

On to `COc1cccc(C(=O)NCC2(N3CCCCC3)CCCCC2)c1`, for which the GFP response vs DMSO was inactive: 105%.

For `COc1ccc(Cl)cc1C(=O)NCC1(N(C)C)CCCCC1`, the GFP response vs DMSO is inactive: 107%.

For `O=C(NCC1(N2CCCCC2)CCCCC1)c1cccc(Cl)c1`, the GFP response vs DMSO is inactive: 108%.
